Assay results reported in patent publication CN116178540A (SANYOU BIO INC, dated 2023).

By UniProt entry, the sequences of proteins in these tests, tags left out. Chains listed by the source or under a name are the forms on record and can include a tag or linker.
UniProt O15123, other isoform, or with tags, fused parts or gaps limits assumed: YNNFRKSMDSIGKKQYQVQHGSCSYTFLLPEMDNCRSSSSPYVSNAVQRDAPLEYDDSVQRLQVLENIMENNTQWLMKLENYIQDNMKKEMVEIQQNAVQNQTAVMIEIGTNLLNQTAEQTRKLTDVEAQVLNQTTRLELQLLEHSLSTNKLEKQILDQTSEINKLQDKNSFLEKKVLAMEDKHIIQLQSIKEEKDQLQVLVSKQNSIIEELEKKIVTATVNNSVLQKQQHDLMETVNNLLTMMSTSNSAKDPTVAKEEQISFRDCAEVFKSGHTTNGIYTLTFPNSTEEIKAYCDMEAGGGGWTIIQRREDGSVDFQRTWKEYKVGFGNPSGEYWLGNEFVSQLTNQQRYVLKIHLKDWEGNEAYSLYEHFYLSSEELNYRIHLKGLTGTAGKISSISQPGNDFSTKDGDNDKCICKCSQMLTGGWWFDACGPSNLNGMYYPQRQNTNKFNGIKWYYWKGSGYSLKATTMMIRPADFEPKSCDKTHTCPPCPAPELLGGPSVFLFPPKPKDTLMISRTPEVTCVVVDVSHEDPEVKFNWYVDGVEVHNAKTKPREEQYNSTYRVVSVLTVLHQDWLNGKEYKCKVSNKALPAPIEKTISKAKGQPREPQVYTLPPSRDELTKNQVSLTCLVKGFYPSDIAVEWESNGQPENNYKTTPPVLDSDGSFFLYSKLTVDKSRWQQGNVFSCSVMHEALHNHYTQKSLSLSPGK

How the values were obtained:
hANG2-Fc [1] = target: T1, hANG2-Fc (human, UniProt O15123 19-496, limits assumed, biotin-labelled in the blocking assays (sites not given)); test: cell-based or functional assay
hANG2-Fc [2] = target: T1, hANG2-Fc; test: FACS competition, hANG2-Fc-biotin premixed with titrated antibody, binding to hTIE2-HEK293 cells
hANG2-Fc [3] = target: T1, hANG2-Fc; test: competition ELISA, hTIE2 ECD-Fc coated, biotinylated hANG2-Fc (4 μg/mL) premixed with titrated antibody

- 对TIE2磷酸化的抑制活性 IC50 (hTIE2-HEK293 cells, phospho-Tie-2 ELISA) (hANG2-Fc [1]): 7.31 µg/mL
- IC50 (hANG2-Fc [2]): 0.265 µg/mL
- IC50 (hANG2-Fc [3]): 0.631 µg/mL
B1: 抗体78A14 (antibody, V domains shown)
VH: EVQLLESGGGVVQPGRSLRLSCAASGFTFNVYGMHWVRQAPGKGLEWVAVISYDGSNKYYADSVKGRFTISRDNSKNTLYLQMNSLRAEDTAVYYCAKATLDGYTAGYYYGMDVWGQGTTVTVSS
VL: EIVLTQSPATLSLSPGERATLSCRASQSVSSYLAWYQQKPGQAPRLLIYGPSNRATGIPDRFSGGGSGTDFTLTISRLEPEDFAVYYCQHYGVSQHTFGQGTKLEIKR
